Tests used:
L-1210/CPR = assay: Cytotoxicity on tumor cells; assay type: cell-based; conditions: mouse leukemia resistant to Cisplatin, 37°C, 72 hours, 5% CO₂, probit method
P-388/ADR = assay: Cytotoxicity on tumor cells; assay type: cell-based; conditions: mouse leukemia resistant to multiple drugs, 37°C, 72 hours, 5% CO₂, probit method

Compound COC(=O)C1(C)Nc2c(O)cc3c(c2C1=O)C(CO)CN3C(=O)c1cc2cc(OC)c(OC)c(OC)c2[nH]1 (centres unmarked) has an IC₅₀ (L-1210/CPR) of 7.9 µg/mL and an IC₅₀ (P-388/ADR) of 14.5 µg/mL.

— patent EP0318056A2, “Novel antibiotics and process for preparing the same” (MEIJI SEIKA KAISHA LTD., priority 1987, dated 1989)
